Rows were chosen to be rich in hits. Some 1.2% of all compounds tested hit in one or more screens of this group.
Glyco luc inh = blocks N-linked glycosylation in D54 reporter cells | AID 588692 | reporter increase, % at 12.5 µM | actives 0.23% (n = 360,000) | D54 ERlucT glycosylation luciferase reporter, 24 h; percent of 100 nM tunicamycin response;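 active = mean luciferase reporter signal, scaled so untreated is 0 and the glycosylation-blocking control 100, at or above a set limit in every replicate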;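 also: luciferase carries N-glycosylation sites so blocking glycosylation raises the light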
Statin myotox sup = suppressors of simvastatin-induced myotoxicity in C2C12 myotubes; rescue of ATP level, % at 7.49 µM; actives 0.78% (n = 330,000); ATP luminescence, 48 h; scaled: DMSO 0, geranylgeraniol control 100; AID 602340;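 active = mean ATP rescue above about 67%, or every replicate alone reaching that limit, limit read from the data, passing the limit was not always enough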;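 also: myotubes were challenged with 10 µM simvastatin during compound exposure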
Cneo AK release = Cryptococcus neoformans lysis via adenylate kinase release; actives 0.2% (n = 360,000); AID 651654; C. neoformans lysis, adenylate kinase release luminescence, 4 h; normalised: neutral wells 0, clomiphene wells 100; lysis activity, % at 15 µM;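 active = mean lysis activity across replicates of at least 80%, whatever share of replicates individually reach that level; inactive = mean lysis activity below 80%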
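Test system: log-phase Cryptococcus neoformans yeast cells. Input: 5 × 10^6 yeast cells/mL. Medium: fresh YPD growth medium. Doses: single dose. Incubation: static 4 h at 37 °C with compound, 1 h detection. Measured by: luminescent adenylate kinase detection reagent. Read-out: signal increase indicating cell lysis. Benchmarks: Clomiphene.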
miR-122 sensor = blocks miR-122 activity in Huh7 sensor cells; Huh7 miR-122 Renilla luciferase sensor, 48 h; neutral wells = 0, positive control = 100; activation (reporter increase), % at 12.5 µM; actives 0.3% (n = 340,000); AID 602342;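 active = mean replicate activation score at least 90 and every replicate individually at or above 90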;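 also: higher luciferase means less miR-122 activity so hits act as miR-122 inhibitors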
Yeast UUG start-1 = modulators of start codon recognition fidelity in yeast; AID 602363; activity score, % at 18.7 µM; S. cerevisiae UUG-firefly luciferase reporter, luminescence/redox ratio; actives 0.13% (n = 350,000);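 active = replicate mean at a twofold rise or more, about +100% in these data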;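 note: firefly luciferase made from a UUG start codon reports start codon fidelity; reporter light over untreated wells divided by growth signal over untreated wells; some hits fall short of that in this replicate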
Yeast UUG start-2 = yeast start codon fidelity modulation; shares compounds with Yeast UUG start-1; S. cerevisiae UUG-start firefly luciferase, luminescence, 4 h; 100% means double the DMSO signal; activation, % at 38 µM; 540 tested, under 10 active;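 active = signal increase whose fitted curve reaches an absolute level of 40 at a concentration under 10 µM; inactive = activity opposite to the expected increase, or the rest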
Large screens that a line does not name were inactive (follow-up assays come after a bar, where they were run).

C[C@@H]1CN([C@H](C)CO)S(=O)(=O)c2ccc(-c3cncnc3)cc2O[C@@H]1CN(C)C(=O)NC1CCCC1	none (no result: Glyco luc inh)
O=C(O)C[C@H]1C[C@H]2c3cc(NC(=O)c4ccc5c(c4)OCO5)ccc3O[C@H]2[C@@H](CO)O1	Yeast UUG start-1 38.5 (no result: Glyco luc inh) | Yeast UUG start-2 inactive
O=C(C[C@@H]1C[C@H]2c3cc(NC(=O)NC4CCCCC4)ccc3O[C@H]2[C@H](CO)O1)NCc1ccccn1	Yeast UUG start-1 75.0 (no result: Glyco luc inh) | Yeast UUG start-2 inactive
O=C(Nc1ccc2c(c1)[C@@H]1C[C@@H](CC(=O)N3CCc4ccccc4C3)O[C@@H](CO)[C@@H]1O2)Nc1ccccc1F	Yeast UUG start-1 61.2 (no result: Glyco luc inh) | Yeast UUG start-2 inactive
COC(=O)C[C@H]1C[C@@H]2c3cc(NC(=O)CC4CC4)ccc3O[C@@H]2[C@@H](CO)O1	Yeast UUG start-1 118.7 (no result: Glyco luc inh) | Yeast UUG start-2 inactive
COC(=O)C[C@@H]1C[C@H]2c3cc(NC(=O)CC4CC4)ccc3O[C@H]2[C@@H](CO)O1	none
O=C(Nc1ccc(C(F)(F)F)cc1)Nc1ccc2c(c1)[C@H]1C[C@H](CC(=O)N3CCc4ccccc4C3)O[C@@H](CO)[C@H]1O2	none (no result: Glyco luc inh, Yeast UUG start-1)
C[C@@H]1CN([C@H](C)CO)C(=O)c2cc(-c3cncnc3)cnc2O[C@H]1CN(C)C(=O)CN1CCOCC1	none (no result: Glyco luc inh, Yeast UUG start-1)
COc1ccc(NC(=O)Nc2ccc3c(c2)CC(=O)N([C@H](C)CO)C[C@@H](C)[C@@H](CN(C)C(=O)NC(C)C)O3)cc1	none (no result: Glyco luc inh)
COc1ccc(NC(=O)Nc2ccc3c(c2)[C@@H]2C[C@@H](CC(=O)NCC4CC4)O[C@@H](CO)[C@@H]2O3)cc1	Yeast UUG start-1 57.0 (no result: Glyco luc inh) | Yeast UUG start-2 inactive
COc1ccc(NC(=O)Nc2ccc3c(c2)[C@H]2C[C@H](CC(=O)NCC4CC4)O[C@H](CO)[C@H]2O3)cc1	none (no result: Glyco luc inh)
Cc1ccccc1NC(=O)Cc1nnc(SCC(=O)NC2=NCCS2)n1C	none (no result: miR-122 sensor)
CC1CCN(C(=O)Cc2nn(C)c(=O)c3ccccc23)CC1	none | Yeast UUG start-2 inactive
Cn1nc(CC(=O)N2CCN(c3ccccc3)CC2)c2ccccc2c1=O	miR-122 sensor 343.8 (no result: Statin myotox sup) | Yeast UUG start-2 inactive
CCC(C)[C@H]1COCCS(=O)(=O)N1Cc1ccc(Cl)cc1Cl (stereo partly drawn)	none
Cc1ccc(-c2cnc3c(c2)C(=O)N([C@H](C)CO)C[C@H](C)[C@@H](CN(C)C(=O)CN(C)C)O3)cc1	none (no result: Glyco luc inh, miR-122 sensor)
COc1ccc(CN2CCN(C(=O)c3cccc4ccccc34)CC2)c(OC)c1OC	Yeast UUG start-1 146.0 | Yeast UUG start-2 inactive
COc1cccc(NC(=O)N2C[C@@H](O)COC[C@H]3O[C@H](CC(=O)N(C)C)CC[C@@H]32)c1	none (no result: Glyco luc inh)
CC(C)C[C@@H](CNCC(=O)[C@H](Cc1ccccc1)NC(=O)c1[nH]cnc1C(=O)N[C@@H](C)CN)NC(=O)c1nc[nH]c1C(=O)N[C@@H](C)C(=O)O	Yeast UUG start-1 130.2 | Yeast UUG start-2 inactive
CC(C)C[C@@H](CNCC(=O)[C@H](C)NC(=O)c1[nH]cnc1C(=O)N[C@@H](C)CN)NC(=O)c1nc[nH]c1C(=O)N[C@@H](C)C(=O)O	Yeast UUG start-1 147.4 | Yeast UUG start-2 inactive
Cc1noc(C)c1S(=O)(=O)Nc1ccc2c(c1)C(=O)N([C@@H](C)CO)C[C@H](C)[C@@H](CN(C)C(=O)Nc1ccc(F)cc1)OCCCC[C@@H](C)O2	none (no result: Glyco luc inh, Statin myotox sup)
O=C(C1CCC1)N1C[C@@H]2[C@H](c3ccccc31)[C@H](CO)N2C(=O)Cc1ccccn1	Yeast UUG start-1 111.4 (no result: Glyco luc inh) | Yeast UUG start-2 inactive
O=C(C1CCC1)N1C[C@H]2[C@@H](c3ccccc31)[C@H](CO)N2C(=O)Cc1ccccn1	Yeast UUG start-1 129.8 (no result: Glyco luc inh) | Yeast UUG start-2 inactive
COc1ccccc1CN1[C@@H]2CN(C(=O)C3CCC3)c3ccccc3[C@@H]2[C@@H]1CO	Yeast UUG start-1 128.2 (no result: Glyco luc inh) | Yeast UUG start-2 inactive
O=C(C1CCCC1)N1C[C@H]2[C@@H](c3ccccc31)[C@H](CO)N2C(=O)Cc1ccccn1	none (no result: Glyco luc inh)
C[C@@H]1CN([C@@H](C)CO)C(=O)c2cc(NC(=O)Nc3ccccc3)ccc2O[C@@H]1CN(C)S(=O)(=O)c1cn(C)cn1	none (no result: Glyco luc inh, Statin myotox sup)
O=C1NC(Cc2c[nH]c3ccccc23)C(=O)N1Cc1ccccc1 (stereo not drawn)	none
N#Cc1ccccc1CN1C(=O)NC(Cc2c[nH]c3ccccc23)C1=O (stereo not drawn)	Yeast UUG start-1 588.2 | Yeast UUG start-2 inactive
COCCNc1nnc(SCC(=O)c2ccc3c(c2)OCO3)s1	Yeast UUG start-1 473.9 | Yeast UUG start-2 inactive
COCCSc1nnc(NC(=O)c2ccc3c(c2)OCO3)s1	none (no result: Statin myotox sup, Cneo AK release, miR-122 sensor, Yeast UUG start-1)
CC(C)C#Cc1ccc2c(c1)O[C@@H](CN(C)Cc1cncnc1)[C@@H](C)CN([C@@H](C)CO)S2(=O)=O	none (no result: Glyco luc inh)
COc1cc(SC)ccc1C(=O)Nc1ccncc1	none (no result: Statin myotox sup, Cneo AK release, miR-122 sensor, Yeast UUG start-1)
COc1cc(SC)ccc1C(=O)Nc1ccccc1C#N	Statin myotox sup 98.7, Yeast UUG start-1 500.5 | Yeast UUG start-2 inactive
COc1ccc(CN(C)C[C@H]2Oc3ccc(NS(=O)(=O)c4cn(C)cn4)cc3C(=O)N([C@H](C)CO)C[C@H]2C)cc1	none (no result: Glyco luc inh)
O=c1cc(CO)occ1OCc1ccccc1	Yeast UUG start-1 483.8 | Yeast UUG start-2 inactive
Cn1c(=O)[nH]c(=O)c2c1nc(Br)n2C/C=N/NC(=O)c1ccccc1	Yeast UUG start-1 136.2 (no result: Statin myotox sup) | Yeast UUG start-2 inactive
COc1ccc(NC(=O)N(C)C[C@@H]2OCCCC[C@@H](C)Oc3ccc(NS(=O)(=O)c4ccccc4)cc3C(=O)N([C@@H](C)CO)C[C@@H]2C)cc1	none (no result: Glyco luc inh, Statin myotox sup)
CN(C)C1=NC[C@H](Cc2ccccc2)N1CCCC1CCCC1	Yeast UUG start-1 150.7 | Yeast UUG start-2 inactive
CC(C)C#Cc1ccc2c(c1)O[C@H](CN(C)Cc1cccnc1)[C@H](C)CN([C@@H](C)CO)S2(=O)=O	none (no result: Glyco luc inh)
C[C@H]1CN([C@@H](C)CO)S(=O)(=O)c2ccc(C#CC3CCCC3)cc2O[C@H]1CN(C)Cc1cccnc1	Yeast UUG start-1 141.8 (no result: Glyco luc inh) | Yeast UUG start-2 inactive
CC(C)C#Cc1ccc2c(c1)O[C@@H](CN(C)Cc1cccnc1)[C@H](C)CN([C@@H](C)CO)S2(=O)=O	Yeast UUG start-1 72.2 (no result: Glyco luc inh) | Yeast UUG start-2 inactive
Cc1noc(C)c1S(=O)(=O)Nc1cccc2c1O[C@H](CN(C)Cc1ccc(C(=O)O)cc1)[C@H](C)CN([C@@H](C)CO)C2=O	none (no result: Glyco luc inh, Statin myotox sup)
C[C@H](CO)N1C[C@H](C)[C@H](CN(C)C(=O)Nc2ccccc2)Oc2ncc(-c3ccccc3)cc2C1=O	none (no result: Glyco luc inh)
COc1ccc(-c2nn(-c3ccccc3)cc2/C=C2/SC(=S)N(CCC(=O)O)C2=O)cc1	none
Cc1ccc(-c2nn(-c3ccccc3)cc2/C=C2\SC(=S)N(CC(=O)O)C2=O)cc1	Yeast UUG start-1 527.0 | Yeast UUG start-2 inactive
CCOc1cc(C(=S)N2CCOCC2)ccc1OC(=O)/C=C/c1ccc(OC)c(OC)c1	Yeast UUG start-1 517.5 | Yeast UUG start-2 inactive
